Our source for the activation values is PubChem BioAssay AID504326 (The Scripps Research Institute Molecular Screening Center, 2011).

The chains behind the UniProt entries cited, without tags or fusion partners.
UniProt P35372, whole entry, looked up: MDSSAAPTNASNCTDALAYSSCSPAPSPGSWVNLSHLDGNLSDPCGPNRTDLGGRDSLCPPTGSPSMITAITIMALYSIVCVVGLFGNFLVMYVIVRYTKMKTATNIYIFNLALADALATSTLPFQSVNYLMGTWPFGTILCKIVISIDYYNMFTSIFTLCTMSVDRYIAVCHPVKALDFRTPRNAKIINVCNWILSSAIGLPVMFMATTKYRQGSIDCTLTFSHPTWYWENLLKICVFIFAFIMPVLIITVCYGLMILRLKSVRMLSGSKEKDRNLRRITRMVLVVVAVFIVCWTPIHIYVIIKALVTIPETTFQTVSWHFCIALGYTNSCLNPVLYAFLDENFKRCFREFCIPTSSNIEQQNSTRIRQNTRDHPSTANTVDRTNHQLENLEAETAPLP
UniProt P41143, whole entry, looked up: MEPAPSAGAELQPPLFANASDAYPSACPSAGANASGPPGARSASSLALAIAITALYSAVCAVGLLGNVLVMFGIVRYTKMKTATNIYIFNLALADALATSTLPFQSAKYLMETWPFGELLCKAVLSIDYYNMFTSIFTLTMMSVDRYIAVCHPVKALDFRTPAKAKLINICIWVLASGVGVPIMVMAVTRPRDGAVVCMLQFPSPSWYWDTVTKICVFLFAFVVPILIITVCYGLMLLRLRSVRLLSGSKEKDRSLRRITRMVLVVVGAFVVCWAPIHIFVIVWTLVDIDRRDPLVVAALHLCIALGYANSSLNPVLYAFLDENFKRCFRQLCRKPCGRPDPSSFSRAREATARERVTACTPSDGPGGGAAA

Only a part is listed here, and it is no random draw. Active and inactive are the calls of the source. Cut-off read from the data, not from the text of the source: active = activation above about 18%; inactive = the rest.

The assay concerns the target Mu-type opioid receptor (Homo sapiens) + Delta-type opioid receptor (Homo sapiens) (UniProt P35372+P41143). Kind of assay: inducers of mu-delta opioid receptor heterodimers – cell-based, luminescence, primary screen (AID 504326).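 Note: 0% = vehicle-treated cells and 100% = reference agonist.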 To be noted: cells, OPRM1-OPRD1 heterodimerization, at 9.3 µM, hits give high values.
As to `O=[N+]([O-])c1ccc2c(c1)nnn2O`, the activation was inactive: -0.02%. For `CC1CCCCN1C(=O)Cn1cnc2c1c(=O)n(C)c(=O)n2C` (stereo not drawn), the activation was inactive: -1.16%.

Consider `CN(C)C(=O)c1cc([N+](=O)[O-])cc2c1-c1c(cc([N+](=O)[O-])cc1[N+](=O)[O-])C2=O`, for which the activation is inactive: 11.6%. For the compound `Cc1ccc2c(c1)C1CN(C)CCC1N2C(=S)NC(=O)c1ccc(Br)cc1` (stereo not drawn), the activation is inactive: -4.92%.

With `CCc1cccc(C)c1NC(=O)Cn1c(NCCO)nc2ccccc21`, the activation is inactive: -1.88%.

As for `CC(C)CN(C(=O)Cn1c(C(F)(F)F)nc2ccccc21)C1CCS(=O)(=O)C1` (stereo not drawn), the activation is inactive: -0.76%.

`O=C(Cn1cnc2ccccc21)N/N=C/c1ccccc1[N+](=O)[O-]`: the activation is inactive: -1.61%. Turning to `N#CCCN(C(=O)COC(=O)C(O)(c1ccccc1)c1ccccc1)c1ccc(F)cc1`, the activation was inactive: -1.14%. The value for `O=C(CSc1nc2ccccc2n1CC(=O)N1CCCC1)Nc1nccs1` was inactive: -2.69%; that for `O=C(Nc1ccccc1)N1CCn2c1nc1ccccc12` was inactive: 1.83%; that for `COc1ccc(CNC(=O)[C@H](CCSC)NC(=O)N2CCn3c2nc2ccccc23)cc1` was inactive: -1.49%. The value for `CCOC(=O)c1ccc(N2C(=O)CC(N3CCC(Nc4ccc(F)cc4)CC3)C2=O)cc1` (stereo not drawn) was inactive: -1.71%; that for `Cn1c(=O)c2c(nc(CN3CCN(c4ccccc4F)CC3)n2CCN2CCOCC2)n(C)c1=O` was inactive: -1.51%.

As for `Fc1ccc2c(c1)nnn2C1CCN(Cc2c(Cl)cccc2Cl)CC1`, the activation is inactive: 3.98%. On to `CC(C)[C@H](NC(=O)N1CCn2c1nc1ccccc12)C(=O)NCc1ccco1`, for which the activation is inactive: -2.55%. Regarding `CN(C(=O)Cc1ccccc1)[C@@H]1CC[C@]2(CCCO2)C[C@H]1N1CCCC1`, the activation was inactive: -0.24%. In the case of `CCOP1(=S)c2c(C)nn(CCC#N)c2N=C(c2ccc(F)cc2)N1C` (stereo not drawn) it was inactive: 0.15%. The value for `Cc1nn2c3ccccc3n(CCN3CCCCC3)c2nc1=O` was inactive: -2.21%; that for `Cc1ccc2c(c1)C1CN(C)CCC1N2S(=O)(=O)c1ccc(C#N)cc1` (stereo not drawn) was inactive: -3.58%; that for `FC(F)(F)c1ccc2c(c1)ncn2C1CCN(Cc2nnnn2C2CCCCC2)CC1` was inactive: -0.25%. Consider `CC1Cc2ccccc2N1C(=O)CSc1nc2ccccc2n1CC(=O)N1CCOCC1` (stereo not drawn), for which the activation is inactive: -0.67%. The value for `Nc1nc2ccccc2n1CCN1CCCC1` was inactive: -2.1%. On to `CC(C)NC(=S)N1CCn2c(nc3ccccc32)C1`, for which the activation was inactive: -0.13%. The value for `O=C(CCCCCNC(=O)N1CCn2c1nc1ccccc12)NCc1ccc(Cl)cc1` was inactive: -1.96%. Consider `CCCCNC(=O)Cn1c(=O)n(C)c2ccccc21`, for which the activation was inactive: 0.33%. In the case of `O=C(Cn1cnc2c(NCc3ccccc3)ncnc21)NCCc1cc2ccccc2[nH]1` it was inactive: -1.58%; in that of `NC(=O)Nc1ccc([As](=O)(O)O)cc1`, inactive: -3.08%.

In the case of `O=C(Cn1cnc2ccccc21)N/N=C/c1cccc([N+](=O)[O-])c1`, the activation was inactive: 0.93%.

For `Cc1nc2ccccc2n1C1CC(=O)N(N(C)C)C1=O` (stereo not drawn), the activation is inactive: -3.26%.

Consider `CC(=O)Nc1nc2ccccc2n1CCN1CCOCC1`, for which the activation is inactive: -0.23%. Turning to `CCOC(=O)C1=C(Cn2cnc3ccccc32)NC(=O)NC1c1ccc(OC)cc1` (stereo not drawn), the activation was inactive: -1.03%. In the case of `CC(=O)OCCNC(=O)Cn1cnc2c1c(=O)n(C)c(=O)n2C` it was inactive: -2.62%; in that of `Cc1cccc(C)c1NC(=O)Cn1cnc2c(=O)n(C)c(=O)n(C)c21`, inactive: -1.72%; in that of `CCC(C)NC(=O)Cn1c(COc2ccc(Cl)cc2Cl)nc2ccccc21` (stereo not drawn), inactive: 2.62%. In the case of `CCC(C)[C@H](NC(=O)N1CCn2c1nc1ccccc12)C(=O)NCc1ccc(OC)cc1` (stereo partly drawn) it was inactive: 2.72%. In the case of `Cn1c(=O)[nH]c(=O)c2c1ncn2CCN1CCOCC1` it was inactive: -0.29%. For the compound `Cn1c(=O)c2c(ncn2CC(=O)N(Cc2ccccc2)c2ccccn2)n(C)c1=O`, the activation is inactive: -4.11%.

For `Cc1ccc(C(=O)Nc2nc3ccccc3n2CCN2CCCC2)cc1`, the activation is inactive: 3.82%. `CCN(CC)CCn1c(NCc2ccc(C)o2)nc2ccccc21`: the activation is inactive: -1.34%. In the case of `O=C(Nc1nc2ccccc2n1CCN1CCCC1)C1CCCCC1` it was inactive: -1.5%. In the case of `CCOC(=O)c1ccccc1NC(=O)Cn1cnc2c1c(=O)n(C)c(=O)n2C` it was inactive: 1.37%; in that of `NC(=O)Cn1c(-c2nonc2N)nc2ccccc21`, inactive: 0.25%. The value for `COCCN1CCn2c(nc3cc(NC(=O)NC4CCCCC4)ccc32)C1` was inactive: 1.05%; that for `Cc1ccc2c(c1)C1CN(C)CCC1N2C(=O)c1cn(-c2ccccc2)nc1-c1ccccc1` (stereo not drawn) was inactive: 0.72%. For the compound `Nc1nonc1-c1nc2ccccc2n1CC(=O)N/N=C/c1ccc(-c2cccc(C(=O)O)c2)o1`, the activation was inactive: -2.18%. In the case of `O=C(O)COc1ccc([As](=O)(O)O)cc1[N+](=O)[O-]` it was inactive: -1.2%; in that of `Nc1ccccc1[As](=O)(O)c1ccccc1`, inactive: -1.89%; in that of `O=C(Cn1cnc2ccccc21)N/N=C/c1ccc([N+](=O)[O-])cc1`, inactive: 4.39%.

Consider `CCOC(=O)CNC(=S)N1CCn2c(nc3ccccc32)C1`, for which the activation was inactive: -2.32%. Regarding `Cc1nc2ccccc2n1CC(=O)NCc1ccccc1`, the activation was inactive: -0.3%. The value for `CCOC(=O)C1CCN(C(=O)CC2C(=O)N(Cc3ccccc3)C(C)c3nc4ccccc4n32)CC1` (stereo not drawn) was inactive: -3.98%. The value for `O=C(C1CCN(S(=O)(=O)c2cnc[nH]2)CC1)N1CCn2c1nc1ccccc12` was inactive: -7.78%. In the case of `Cn1c(=O)c2c(ncn2CC(=O)N/N=C/C=C/c2ccco2)n(C)c1=O`, the activation is inactive: -3.02%. The value for `Cn1c(=O)c2c(ncn2CC(=O)N/N=C/c2cn[nH]c2-c2ccc(F)cc2)n(C)c1=O` was inactive: 0.45%. Take `COc1cccc(C(=O)CSc2nc3ccccc3n2CC(=O)N(C(C)C)C(C)C)c1`: the activation was inactive: -3.17%. Turning to `CC(C)Sc1nc2ccccc2n1CC(=O)NCc1ccc2c(c1)OCO2`, the activation is inactive: -0.21%. In the case of `Cn1c(=O)n(Cc2ccc(F)cc2)c(=O)c2c1nc1n2CCN1Cc1ccco1` it was inactive: 1.47%. The value for `NNC(=O)Cn1c(COc2ccc(Cl)cc2)nc2ccccc21` was inactive: 4.38%.
